Binding of CDR-mutated scFvs to a peptide of the spike HR2 region

Reference: Li et al. 2023, doi:10.1038/s41467-023-39022-2. File: FLAb, binding data.

Binding partner: SARS-CoV-2 spike HR2 peptide, sequence PDVDLGDISGINAS.

Parent scFv Ab-14: VH joined to VL by a (GGGGS)3 linker. Changes lie in the heavy chain CDRs alone.
VH: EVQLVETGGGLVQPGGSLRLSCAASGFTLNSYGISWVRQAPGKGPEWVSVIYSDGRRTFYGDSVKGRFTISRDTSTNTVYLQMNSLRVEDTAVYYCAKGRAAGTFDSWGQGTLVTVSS
VL: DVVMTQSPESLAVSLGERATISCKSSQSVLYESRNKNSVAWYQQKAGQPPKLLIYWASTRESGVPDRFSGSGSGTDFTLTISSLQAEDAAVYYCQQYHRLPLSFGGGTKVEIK

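Phage display of a naive human antibody library on the peptide gave the parent. Designed CDR sequences, proposed from the first random library and measured here. Their group label is 14H_GP_Gen (GP: Gaussian process model; Gen: genetic algorithm; a sequence that several methods proposed may carry one label only). AlphaSeq pools MATa yeast showing the antibodies with MATalpha yeast showing the peptide. The frequency of each diploid, read from paired DNA barcodes, reflects how well the two displayed proteins bind. Each replicate has its own calibration line, from reference interactions of the BCL2 family. Each pool was mated in six replicate cultures.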

Positions count from residue 1 of the parent VH; T28Q puts Q in place of T.
Values are log10 of the apparent Kd in nM; lower means stronger binding.
Where no diploid with the target was found in that replicate, the entry reads "nd": below detection, most likely a poor binder, though not proof of it.
The parent sequence was in this pool as ten entries: three were never detected, three once, and four in most replicates, with averages from 0.34 to 2.37.
Values of this round are not directly comparable with the first-round values of the same sequences.
The authors averaged sequences with at least three values out of six and counted those with two or fewer as poor binders.
Nonspecific signal, from three strains lacking the peptide, appeared in 1% of pairings of all heavy chain designs, centred on 2.08 (5% of these signals below 0.84); values are not corrected for it. For each scFv, signals with the empty controls are counted beside the result.

With T28Q+F59A+A101N the result was 1.31, 0.95, 1.13, 0.98, 1.36, 1.64 (controls 0 of 18).
With T28V+S31E+G61H+A101T the result was 0.46, 0.38, 0.44, 0.38, 0.69, 0.29 (controls 0 of 18).
With T28S+S31Y+R56K+A101T the result was nd, 0.47, nd, 1.16, nd, 1.43 (controls 0 of 18).
With G26K+T28D+R100N the result was nd, nd, nd, 2.39, 1.23, 1.66 (controls 0 of 18).
With G26W+T28D+F59A+A101Q the result was 0.96, 0.95, 1.31, 0.22, 0.43, 0.82 (controls 1 of 18).
With T28E+S53A+S63R+A101T the result was 0.00, 0.94, -0.29, -0.59, -0.13, 0.11 (controls 0 of 18).
With T28S+S31E+S63A+A101N the result was 0.02, 0.08, -0.17, -0.03, -0.11, 0.09 (controls 1 of 18).
With S63Q+R100K+A101T the result was nd, 2.33, 1.05, 1.90, 2.66, 2.84 (controls 0 of 18).
With T28D+G61I+R100Q+S107D the result was 1.40, 0.78, 1.08, 2.46, 0.82, 1.65 (controls 0 of 18).
With T28D+G61Q+A101W the result was 1.45, 2.05, 0.93, 1.50, nd, 1.80 (controls 0 of 18).
With T28S+S63H+R100Q+A101T the result was 1.01, 0.60, 1.71, 0.46, 0.79, 2.17 (controls 0 of 18).
With T28D+R56K+A101E+S107T the result was 0.05, -0.20, 0.05, -0.42, -0.13, -0.16 (controls 1 of 18).
With T28D+S31T+F59A+A101T the result was 0.70, 0.56, -0.09, 0.69, 1.02, 0.75 (controls 0 of 18).
With T28D+A101Q+S107E the result was 2.12, nd, 0.74, 0.32, 0.71, nd (controls 0 of 18).
With T28Q+S31E+R56K+A101T the result was 0.00, 0.22, -0.01, -0.14, -0.09, -0.05 (controls 1 of 18).
With T28S+S63N+R100M+A101T the result was 0.45, 0.15, -0.13, 0.15, 0.24, 0.18 (controls 0 of 18).
With T28E+R100M+A101E the result was 0.07, 0.18, 0.20, 0.31, 0.45, 0.40 (controls 0 of 18).
With T28S+F59A+S63N+A101T the result was 0.13, -0.26, 0.12, -0.23, -0.25, -0.45 (controls 0 of 18).
With T28E+R100W+A101M the result was nd, nd, nd, nd, nd, nd (controls 0 of 18).
With T28E+G61S+S63D+R100E the result was nd, 2.36, 0.05, 0.65, 0.85, 1.12 (controls 0 of 18).
With T28H+G61Q+A101E the result was 0.98, 0.66, 0.68, 0.57, 0.59, 0.56 (controls 0 of 18).
With T28D+G61A+S63M+R100K the result was nd, nd, nd, nd, nd, nd (controls 0 of 18).
With S53A+R100N+S107T the result was -0.58, -0.63, -0.86, -1.10, -0.83, -0.71 (controls 0 of 18).
With T28S+S31E+G61V+A101N the result was 0.71, 1.38, -0.02, 0.08, 0.59, 0.45 (controls 0 of 18).
With T28Q+S31E+G61K+A101T the result was nd, nd, nd, nd, nd, nd (controls 0 of 18).
With T28E+S63Q+R100Q+A101T the result was 1.33, 0.50, 0.73, 0.82, 0.67, 0.66 (controls 0 of 18).
With T28Q+G61S+R100Q+A101T the result was 0.79, 0.51, 0.10, 0.49, 0.93, 0.30 (controls 0 of 18).
With T28D+S63D+A101Q the result was 1.47, 1.23, 0.53, 0.64, 1.21, 1.42 (controls 0 of 18).
With T28S+G61V+A101Q+S107T the result was nd, 0.82, nd, 1.59, 2.19, 1.04 (controls 0 of 18).
With T28S+S31E+A101M+S107T the result was 0.84, 1.03, 0.55, 0.66, 0.69, 0.75 (controls 0 of 18).

Repeated from above, the 3 best binders with a signal in all replicates:

changes	log10 Kd, replicates	control signals
S53A+R100N+S107T	-0.58, -0.63, -0.86, -1.10, -0.83, -0.71	0 of 18
T28S+F59A+S63N+A101T	0.13, -0.26, 0.12, -0.23, -0.25, -0.45	0 of 18
T28D+R56K+A101E+S107T	0.05, -0.20, 0.05, -0.42, -0.13, -0.16	1 of 18